# This is a selection; strong and weak results do not stand in their true shares. Activity calls are given as the source filed them.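 The calls were made as follows: active = compounds whose signal lies at least 3.5 SD above the mean of all wells on their plate; inactive = the rest.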
# Test: inducers of MIN6 beta-cell proliferation, primary screen, ATP luminescence, uHTS (AID 2380);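 also: 0% = DMSO-treated cells in low-serum medium and 100% = 10% serum control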
# Settings: MIN6 cells proliferation, ATPlite luminescence, 48 h; at 10 µM; active compounds read high; 100% = growth in 10% serum; cells starved in 0.2% serum
row,Compound,proliferation
1,Cc1nc2ccc3ccccc3c2s1.O=[N+]([O-])c1cc([N+](=O)[O-])c(O)c([N+](=O)[O-])c1,inactive: 0.1%
2,O=[N+]([O-])c1cc([N+](=O)[O-])c(-c2cnn(-c3ccccc3)c2)c([N+](=O)[O-])c1,inactive: -5.86%
3,O=[N+]([O-])c1cc([N+](=O)[O-])c(-n2nnc3ccccc32)c([N+](=O)[O-])c1,inactive: -5.01%
4,CP(=O)(Nc1ccc(SC(F)(F)F)cc1)Oc1ccccc1 (stereo unspecified),inactive: 0%
5,CCCOc1ccc(NP(C)(=O)Oc2ccc(Cl)cc2)cc1 (stereo unspecified),inactive: 1.63%
6,COc1ccccc1OP(C)(=O)Nc1c(C)cccc1C (stereo unspecified),inactive: 0.92%
7,CN1CCCCC1COC(=O)C1(O)c2ccccc2CCc2ccccc21 (stereo unspecified),inactive: 0%
8,O=[N+]([O-])c1cc([N+](=O)[O-])c(Nc2nnnn2CCO)c([N+](=O)[O-])c1,inactive: -1.9%
9,CC1=C2N=C(C=C3N=C(C(C)=C4[N-][C@@](C)([C@@H]5N=C1[C@](C)(CCC(=O)NC[C@@H](C)OP(=O)([O-])O[C@H]1[C@@H](O)[C@@H](n6cnc7cc(C)c(C)cc76)O[C@@H]1CO)[C@H]5CC(N)=O)[C@@](C)(CC(N)=O)[C@@H]4CCC(N)=O)[C@@](C)(CC(N)=O)[C@@H]3CCC(N)=O)C(C)(C)[C@@H]2CCC(N)=O.[C-]#N.[Co+3],inactive: 1.2%
10,CCOC(=O)C(CC)C1=NC(C)(C)Cc2ccccc21.O=[N+]([O-])c1cc([N+](=O)[O-])c(O)c([N+](=O)[O-])c1 (stereo unspecified),inactive: -2.78%
11,CC1=NCCc2c1[nH]c1ccccc21.O=[N+]([O-])c1cc([N+](=O)[O-])c(O)c([N+](=O)[O-])c1,inactive: -0.19%
12,O=C(O)c1cccc(Nc2c([N+](=O)[O-])cc([N+](=O)[O-])cc2[N+](=O)[O-])c1,inactive: -1.08%
13,Cc1ccc(C)c(NP(C)(=O)Oc2ccccc2)c1 (stereo unspecified),inactive: -1.87%
14,CP(=O)(Nc1cccc(Br)c1)Oc1ccccc1 (stereo unspecified),inactive: -1.87%
15,Cc1cc(C)cc(OP(C)(=O)Nc2ccccn2)c1 (stereo unspecified),inactive: -0.12%
16,CCOC(=O)c1ccc(NP(C)(=O)Oc2cc(C)cc(C)c2)cc1 (stereo unspecified),inactive: 0%
17,Cc1cc(C)cc(OP(C)(=O)Nc2ccc(C)cc2C)c1 (stereo unspecified),inactive: -1.41%
18,COc1ccccc1OP(C)(=O)Nc1cccc(Br)c1 (stereo unspecified),inactive: 4.71%
19,CCN(CC)CCCOC(=O)C(O)(c1ccccc1)c1ccccc1,inactive: 0.03%

row,Compound,proliferation
1,Cc1cc(C)cc(OP(C)(N)=O)c1 (stereo unspecified),inactive: -3.16%
2,COc1ccccc1OP(C)(=O)Nc1cc(Cl)ccc1C (stereo unspecified),inactive: 0.67%
3,COc1ccc(OP(C)(=O)Nc2cccc(F)c2)cc1 (stereo unspecified),inactive: 0.18%
4,COc1ccccc1OP(C)(=O)Nc1ccc(C)cc1 (stereo unspecified),inactive: -2.01%
5,Cc1ccc(NP(C)(=O)Oc2ccccc2)c(C)c1 (stereo unspecified),inactive: 0%
6,CCOC(=O)c1ccc(NP(C)(=O)Oc2ccccc2)cc1 (stereo unspecified),inactive: 0%
7,CC(C)(C)c1ccc(OP(C)(=O)Nc2ccc(SC(F)(F)F)cc2)cc1 (stereo unspecified),inactive: -2.76%
8,Cc1cccc(C)c1OP(C)(N)=O (stereo unspecified),inactive: -0.16%
9,O=[N+]([O-])c1cc([N+](=O)[O-])c(Nc2cccnc2)c([N+](=O)[O-])c1,inactive: -7.87%
10,CP(=O)(Nc1ccccc1Br)Oc1ccccc1 (stereo unspecified),inactive: -3.76%
11,COc1ccccc1OP(C)(=O)Nc1ccccc1 (stereo unspecified),inactive: -2.21%
12,CP(=S)(Nn1cnnc1)Oc1ccccc1 (stereo unspecified),inactive: -1.22%
13,CP(=O)(Nc1ccccn1)Oc1ccc(Cl)cc1 (stereo unspecified),inactive: -2.74%
14,CCOC(=O)c1ccc(NP(C)(=O)Oc2ccc(OC)cc2)cc1 (stereo unspecified),inactive: 0%
15,O=[N+]([O-])c1cc([N+](=O)[O-])c(O)c([N+](=O)[O-])c1.c1ccc(Oc2ccncc2)cc1,inactive: 1.11%
16,CCOP(C)(=S)SCC(=O)NC(C)C(=O)O (stereo unspecified),inactive: -0.13%
17,CCc1ccc(OP(C)(=O)N2CCN(c3ccc([N+](=O)[O-])cc3)CC2)cc1 (stereo unspecified),inactive: 0.06%
18,CP(=O)(NC(=O)Nc1ccccc1)Oc1ccccc1 (stereo unspecified),inactive: -1.2%
19,Cc1cc(C)cc(OP(C)(=O)Nc2ccc(SC(F)(F)F)cc2)c1 (stereo unspecified),inactive: -2.38%

row,Compound,proliferation
1,Cc1cccc(C)c1OP(C)(=O)Nc1ccc(SC(F)(F)F)cc1 (stereo unspecified),inactive: -6.92%
2,CP(=O)(Nc1ccc(SC(F)(F)F)cc1)Oc1ccc(Cl)cc1 (stereo unspecified),inactive: -1.85%
3,CP(=O)(Oc1ccccc1)OC(c1ccccc1)C(F)(F)F (stereo unspecified),inactive: 1.68%
4,CN(C)C(=O)c1c([N+](=O)[O-])cc([N+](=O)[O-])cc1[N+](=O)[O-],inactive: -5.65%
5,CC(C)(C)c1ccc(OP(C)(=O)O)cc1,inactive: 2.35%
6,COc1ccccc1OP(C)(=O)Nc1ccccc1Br (stereo unspecified),inactive: -0.88%
7,CP(=O)(Nc1ccc(Cl)cc1)Oc1ccc(F)cc1 (stereo unspecified),inactive: -3.24%
8,COc1ccccc1OP(C)(=O)Nc1c(C)n(C)n(-c2ccccc2)c1=O (stereo unspecified),inactive: -0.99%
9,O=C(OCCCN1CCCC1)C(O)(c1ccccc1)C1CCCCC1 (stereo unspecified),inactive: -2.29%
10,CP(=O)(Oc1ccccc1)N1CCOC1=O (stereo unspecified),inactive: 0.03%
11,CCc1ccc(OP(C)(=O)Nc2cccnc2)cc1 (stereo unspecified),inactive: -2.41%
12,CCN(CC)CC(O)COC(=O)C(O)(c1ccccc1)C1CCCCC1 (stereo unspecified),inactive: -0.74%
13,COc1ccc(OP(C)(=O)Nc2ccc(Br)cc2)cc1 (stereo unspecified),inactive: -1.06%
14,CCOC(=O)c1ccc(NP(C)(=O)Oc2ccc(Cl)cc2)cc1 (stereo unspecified),inactive: -1.99%
15,CP(=O)(OC12CC3CC(CC(C3)C1)C2)OC12CC3CC(CC(C3)C1)C2,inactive: -4.94%
16,Nc1ccc2c(ccc3cccnc32)n1.O=[N+]([O-])c1cc([N+](=O)[O-])c(O)c([N+](=O)[O-])c1,inactive: -1.31%
17,CP(=O)(OCCOc1ccccc1)OCCOc1ccccc1,inactive: -2.78%
18,CP(=O)(Nc1ccc(Cl)cc1Cl)Oc1ccccc1 (stereo unspecified),inactive: 0.14%

# — PubChem BioAssay AID2380 (Sanford-Burnham Center for Chemical Genomics, 2010)
